This note sets out measurements from PMC9139002, “Naphthoquinone as a New Chemical Scaffold for Leishmanicidal Inhibitors of Leishmania GSK-3” (Biomedicines, 2022).

The test has as its system mouse peritoneal macrophages (MPM). The test is described as follows: Cytotoxicity on mouse peritoneal macrophages (MTT reduction). Conditions: read-out: MPM IC50. It counts as cell-based. The protocol: Leishmania parasites were collected at late exponential growth phase by centrifugation at 1610× g at 4 °C. Elicited mouse peritoneal macrophages (MPM) were obtained from 8-week-old Balb/c mice through i.p. injection with 1 mL of 10% thioglycolate medium 72 h before extraction. Macrophages were obtained by peritoneal washing (10 mL PBS, 4 °C).
Both activities were assessed by inhibition of MTT (3-(4,5-dimethylthiazol-2-yl)-2,5-diphenyltetrazolium bromide) reduction, as described in [34]. Samples were made in triplicate and assays were repeated at least twice. DMSO content in the medium was adjusted to 0.25% v/v (final concentration), regardless of the final concentration of the drug, and for the control, the untreated parasites. ICx (inhibitory concentration that inhibits parasite growth or enzymatic activity by x%) was calculated using the statistical module of SigmaPlot v11.0 software.
In general terms: Tetrazolium dyes change colour on reduction, which living cells bring about.

Molecules are shown by their SMILES.

Usually IC50 stands for the concentration at which inhibition is half-maximal. With `CCCCCCCC(=O)NNC(=O)c1c(O)c2ccccc2n(C)c1=O`, the half-inhibitory concentration (IC50) is above 25 µM.
